Test system: Stage IV cancer
Conditions: 675 Stage IV cancer patients; iv then oral Salicinium
Description: A ten-year, multi-center cancer study was conducted wherein we recruited a total of 675 Stage IV cancer patients. These patients were treated and closely monitored through four participating medical and naturopathic clinics, with each clinic following standard therapeutic, monitoring and reporting protocols for each patient over a minimum study period of five years. The patients in these studies were all diagnosed by standard diagnostic methods (e.g., using tumor visualization, cytology, biopsy, blood assays for circulating tumor markers, etc.) at the start of the study as having Stage IV cancer, according to conventional diagnostic standards. Cancer types were grouped by primary cancer cytology/histochemistry, patient history and other standard criteria.
Of the 675 enrolled patients, 128 patients entered the study with diagnosed Stage IV breast cancer, 91 with Stage IV colon/rectal cancer, 34 with Stage IV head/neck cancer, 86 with Stage IV lung cancer, 32 with Stage IV non-Hodgkin's lymphoma (NHL), 28 with Stage IV melanoma, 36 with Stage IV ovarian cancer, 37 with Stage IV pancreatic cancer, 76 with Stage IV prostate cancer, 18 with Stage IV renal cancer, 23 with Stage IV sarcoma, and 34 with Stage IV uterine cancer. […]

With “4-(beta-D-allopyranosyloxy)-benzaldehyde [Salicinium]” the “reported adverse side effects” value was “few or no reported adverse side effects”.

Reference: patent publication US20240316087A1, “Compositions And Methods For Inducing Apoptosis In Anaerobic Cells And Related Clinical Methods For Treating Cancer And Pathogenic Infections” (priority 2017, published 2024)
